In this test the target is cAMP and cAMP-inhibited cGMP 3',5'-cyclic phosphodiesterase 10A (Homo sapiens, UniProt Q9Y233). The test is described as follows: Inhibition of human PDE10A expressed in Sf9 cells using [3H]cAMP by scintillation proximity assay. A general note: In a scintillation proximity assay essentially only radioactivity close to the scintillant gives light.

Protein sequences, listed by entry. Tags and fused reporters are not part of them. Lines headed by an entry give the natural chain unless they say otherwise; changes in a name come on top.
UniProt Q9Y233: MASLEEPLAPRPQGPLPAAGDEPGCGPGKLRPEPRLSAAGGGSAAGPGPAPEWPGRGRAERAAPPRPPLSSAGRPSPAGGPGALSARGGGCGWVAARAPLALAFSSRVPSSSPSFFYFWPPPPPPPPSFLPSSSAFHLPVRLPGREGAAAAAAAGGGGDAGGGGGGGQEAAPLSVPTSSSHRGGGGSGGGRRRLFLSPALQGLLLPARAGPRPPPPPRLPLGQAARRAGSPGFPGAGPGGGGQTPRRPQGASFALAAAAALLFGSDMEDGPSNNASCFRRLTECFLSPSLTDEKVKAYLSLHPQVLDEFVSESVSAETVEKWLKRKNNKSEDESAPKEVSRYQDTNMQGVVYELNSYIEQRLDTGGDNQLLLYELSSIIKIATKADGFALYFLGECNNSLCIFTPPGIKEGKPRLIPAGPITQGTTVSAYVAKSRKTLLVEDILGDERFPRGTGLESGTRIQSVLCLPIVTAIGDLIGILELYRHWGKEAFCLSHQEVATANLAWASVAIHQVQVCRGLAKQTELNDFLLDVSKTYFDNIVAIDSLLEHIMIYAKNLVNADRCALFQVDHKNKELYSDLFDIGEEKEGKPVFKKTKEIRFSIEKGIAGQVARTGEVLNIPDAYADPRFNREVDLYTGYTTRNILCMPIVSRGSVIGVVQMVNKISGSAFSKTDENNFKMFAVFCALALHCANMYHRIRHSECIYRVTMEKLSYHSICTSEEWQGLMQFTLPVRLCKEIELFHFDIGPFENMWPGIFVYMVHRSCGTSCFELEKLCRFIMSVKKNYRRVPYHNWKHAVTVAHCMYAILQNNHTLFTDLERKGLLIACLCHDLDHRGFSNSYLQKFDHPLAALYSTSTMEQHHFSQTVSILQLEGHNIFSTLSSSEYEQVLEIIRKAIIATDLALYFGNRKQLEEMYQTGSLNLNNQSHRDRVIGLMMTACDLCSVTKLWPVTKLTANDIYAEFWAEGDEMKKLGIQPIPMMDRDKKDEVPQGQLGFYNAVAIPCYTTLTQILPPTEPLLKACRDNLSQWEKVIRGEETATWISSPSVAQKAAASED

`COc1ccc(Cc2nccc3cc(OC)c(OC)cc23)cc1OC` [PAPAVERINE] had a concentration for half-maximal inhibition (IC50) of 17 nM.

A word on the IC50: it is the concentration that gives 50% inhibition.

Source of the values: ChEMBL document CHEMBL1641409, “Synthesis and SAR study of new phenylimidazole-pyrazolo[1,5-c]quinazolines as potent phosphodiesterase 10A inhibitors” (Bioorg Med Chem, 2011).
